Data as given in patent US7109245B2, “Vasoconstrictor cannabinoid analogs” (priority 2001, dated 2006).

Test system: mesenteric branch arteries isolated from wild-type and CB1 receptor deficient mice
Assay: Calcium-induced relaxation of mouse isolated mesenteric branch arteries precontracted with norepinephrine
Conditions: SR141716A; wild-type and CB1 knockout mice; 5 μM norepinephrine precontraction

Which “inhibition of calcium-induced relaxation” value does the source give for `Cc1c(C(=O)NN2CCCCC2)nn(-c2ccc(Cl)cc2Cl)c1-c1ccc(Cl)cc1` [SR141716A] here?
The value was “concentration-dependent inhibition of calcium-induced relaxation”.
